PMC8740777 (The FASEB Journal, 2022)

Chains of the proteins cited; added tags and fusions are not shown.
UniProt P21453, whole entry: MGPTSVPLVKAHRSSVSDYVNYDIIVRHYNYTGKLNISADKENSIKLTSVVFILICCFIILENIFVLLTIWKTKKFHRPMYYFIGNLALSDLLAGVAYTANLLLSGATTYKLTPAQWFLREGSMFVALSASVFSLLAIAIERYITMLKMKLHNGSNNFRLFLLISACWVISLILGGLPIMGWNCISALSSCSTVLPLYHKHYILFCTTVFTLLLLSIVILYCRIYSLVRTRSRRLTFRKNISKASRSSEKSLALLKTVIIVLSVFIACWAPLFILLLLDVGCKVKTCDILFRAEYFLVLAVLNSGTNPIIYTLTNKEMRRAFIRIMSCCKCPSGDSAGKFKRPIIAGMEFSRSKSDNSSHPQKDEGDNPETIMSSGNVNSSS

Key:
S1P1 = S1P1 (Homo sapiens, UniProt P21453); test: S1P1 internalization, wash-out experiment in S1P1-C6 cells; type: cell-based; conditions: 1 µM for 4 h, 18 h compound-free medium, FCM
[1] = target: S1P1‐EGFP fusion construct (Homo sapiens, UniProt P21453); test: S1P1-EGFP internalization imaging in human primary astrocytes; type: cell-based; conditions: 1 µM, 1 h

- cell surface expression of S1P1 after wash-out (S1P1): induced sustained S1P1 internalization
- S1P1 internalization (S1P1-EGFP imaging) [1]: rapid S1P1 internalization
Compound: CCCCCCCCc1ccc(CC[C@](N)(CO)COP(=O)(O)O)cc1 [Fingolimod-P, fingolimod phosphate]
